Measurements published in BindingDB's records for doi:10.1016/j.bmc.2016.07.043 (University of Malaya, 2016).

By UniProt entry, the sequences of proteins in these tests, tags left out.
UniProt P81908, whole entry: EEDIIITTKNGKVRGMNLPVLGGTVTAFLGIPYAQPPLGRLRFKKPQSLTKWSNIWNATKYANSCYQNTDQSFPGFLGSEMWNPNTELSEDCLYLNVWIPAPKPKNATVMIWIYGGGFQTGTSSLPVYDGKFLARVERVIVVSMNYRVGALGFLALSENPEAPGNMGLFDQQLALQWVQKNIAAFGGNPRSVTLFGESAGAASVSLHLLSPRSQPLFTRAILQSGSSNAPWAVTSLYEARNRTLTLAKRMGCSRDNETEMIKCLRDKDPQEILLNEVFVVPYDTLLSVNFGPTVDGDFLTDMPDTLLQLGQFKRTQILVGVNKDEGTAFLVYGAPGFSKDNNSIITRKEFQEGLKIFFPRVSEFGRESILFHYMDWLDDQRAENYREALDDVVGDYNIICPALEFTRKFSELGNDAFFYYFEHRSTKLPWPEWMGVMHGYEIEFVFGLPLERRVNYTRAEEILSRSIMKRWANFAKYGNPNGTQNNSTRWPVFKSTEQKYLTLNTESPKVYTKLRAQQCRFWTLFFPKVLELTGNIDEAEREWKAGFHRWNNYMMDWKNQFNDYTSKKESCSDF

Target: Cholinesterase (Equus caballus, UniProt P81908)
Experiment: Inhibition of equine serum BChE preincubated for 15 mins followed by addition of S-butyrylthiocholine chloride as substrate measured after 30 mins by Ellman's microplate assay

## CNC(=O)Oc1ccc2c(c1)[C@]1(C)CCN(C)[C@@H]1N2C
  IC50: 580 nM
